The entries are a selection whose mix differs from that of the whole data set. Some results for these compounds are left out of this collection, so the calls shown say nothing about other tests. Inconclusive results are not listed. The source made the active and inactive calls. Calls come from the whole dose curve.
What follows are molecules tested against Importin subunit beta-1 (Homo sapiens) (UniProt Q14974) (assay: qHTS Assay for Inhibitors of Rango (Ran-regulated importin-beta cargo) - Importin beta complex formation). Conditions: Rango CFP/YFP FRET sensor + importin beta, 45 min; at 92.2 µM (top of the series).
From the text: NIH Molecular Libraries Probe Production Centers Network [MLPCN] NIH Chemical Genomics Center [NCGC] MLPCN Grant: R03 MH090808-01A1 Assay Submitter (PI): Petr Kalab NCGC Assay Overview: The small GTPase Ran regulates transport of macromolecules between the nucleus and the cytoplasm (nuclear transport) and has important functions in mitotic spindle assembly, nuclear envelope (NE) formation and nuclear pore complex (NPC) assembly. RanGTP gradient is thought to promote spindle assembly by providing a spatial clue to microtubule nucleation and Aurora A activation. Because the localized release and binding of importin alpha cargo relays this spatial clue to SAFs, inhibitors of the Rango - importin beta complex can then be used in further understanding their role in cell cycle specifically in mitosis progression. […] Activation of Aurora A has been linked to different types of cancer and a number of Aurora kinase inhibitors are being developed as potential canter therapeutics therefore, identified inhibitors of this complex could be developed into potential anti-mitotic probes for cancer treatment. Purified recombinant proteins Rango and importin beta were provided by the assay submitter. The assay used a fluorescence resonance energy transfer (FRET) Rango biosensor that contains the IBB of human snurportin 1 flanked by yellow fluorescent protein (EYFP) at the amino terminus and cerulean CFP10 at the carboxy terminus. […] Inhibitors will therefore be identified based on the ability to interfere with the FRET signal decrease. DMSO treated and no importin beta (buffer only) wells were used as negative and positive controls respectively. FRET readings were obtained at two time points. FRET reading prior to importin beta addition (pre-read) were used flag potential compound interference; FRET reading after importin beta addition (post-read) were used to identify inhibitors using the FRET ratio parameter.
NCGC Assay Protocol Summary: Two and a half uL/well of Rango-buffer solution (50 nM Rango, 1x PBS, 1mM DTT, 0.02% Tween-20, 0.1% BSA final concentrations) was dispensed into 1536-well assay plates (Greiner, solid black medium-binding plates) with Aurora Discovery BioRAPTR Flying Reagent Dispenser (FRD; Beckton-Dickenson). Compound solution (23 nL) was transferred to the assay plate using Kalypsys pin tool equipped with a 1536-pin tool and incubated at room temperature for 5 min followed by a FRET pre-read using the PerkinElmer Envision plate reader. Two and a half uL/well of Importin beta - buffer solution (0.125 microM importin beta, 1x PBS, 1mM DTT, 0.02% Tween-20, 0.1% BSA final concentrations) were then added and incubated at room temperature giving a final reaction volume of 5uL. After 45min FRET post-read was obtained via the Envision plate reader using the same optics and settings as the pre-read (CFP/YFP optimized dual optical module D450/D505; excitation mirror CFP 430/24 nm; and emission filters CFP 486/10 nm and YFP 530/10 nm).
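Note: 0% = DMSO wells and 100% = buffer wells lacking importin beta; nearly all actives have a fitted effect of over 15% in size.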

Amino acid sequences for entries named in this document (tags omitted).
UniProt Q14974, whole entry: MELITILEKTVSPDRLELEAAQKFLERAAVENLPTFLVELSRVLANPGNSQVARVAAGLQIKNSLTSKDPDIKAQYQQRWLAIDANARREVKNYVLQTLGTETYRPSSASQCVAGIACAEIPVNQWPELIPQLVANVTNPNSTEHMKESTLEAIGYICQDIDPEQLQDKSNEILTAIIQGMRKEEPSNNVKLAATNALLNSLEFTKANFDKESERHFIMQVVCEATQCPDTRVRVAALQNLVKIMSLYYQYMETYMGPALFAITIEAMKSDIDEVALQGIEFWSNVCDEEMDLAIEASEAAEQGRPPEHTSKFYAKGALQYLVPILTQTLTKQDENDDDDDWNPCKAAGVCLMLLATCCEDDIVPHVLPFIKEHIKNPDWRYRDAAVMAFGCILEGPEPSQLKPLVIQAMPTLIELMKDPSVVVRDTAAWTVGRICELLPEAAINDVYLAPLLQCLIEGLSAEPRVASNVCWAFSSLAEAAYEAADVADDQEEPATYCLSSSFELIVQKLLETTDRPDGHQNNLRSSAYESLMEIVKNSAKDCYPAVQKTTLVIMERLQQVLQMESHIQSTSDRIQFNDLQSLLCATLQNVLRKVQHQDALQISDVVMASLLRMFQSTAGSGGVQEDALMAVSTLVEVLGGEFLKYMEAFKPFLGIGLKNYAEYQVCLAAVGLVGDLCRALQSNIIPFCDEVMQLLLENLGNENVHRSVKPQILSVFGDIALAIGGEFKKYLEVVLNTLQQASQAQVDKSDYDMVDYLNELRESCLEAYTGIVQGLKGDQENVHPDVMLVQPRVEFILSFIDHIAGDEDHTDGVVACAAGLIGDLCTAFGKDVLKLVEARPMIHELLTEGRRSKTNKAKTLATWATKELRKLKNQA
UniProt O95149, whole entry partner: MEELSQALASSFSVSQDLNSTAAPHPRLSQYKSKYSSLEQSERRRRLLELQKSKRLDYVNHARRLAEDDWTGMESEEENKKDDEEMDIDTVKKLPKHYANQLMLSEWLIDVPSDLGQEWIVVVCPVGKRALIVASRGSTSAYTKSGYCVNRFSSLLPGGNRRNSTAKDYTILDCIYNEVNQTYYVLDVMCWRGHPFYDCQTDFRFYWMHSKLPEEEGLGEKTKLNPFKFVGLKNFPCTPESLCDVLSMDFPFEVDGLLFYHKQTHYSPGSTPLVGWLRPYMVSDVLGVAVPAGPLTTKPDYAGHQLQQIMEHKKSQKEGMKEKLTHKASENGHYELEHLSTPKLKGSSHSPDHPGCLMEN

Structure (SMILES) | inhibition of complex formation
O=C(NCC1(N2CCCCC2)CCCCC1)c1cc([N+](=O)[O-])ccc1Cl | inactive: -2.94%
CN1[C@@H]2CC[C@H]1CC(OC(=O)C(O)(c1ccccc1)c1ccccc1)C2 (some centres undefined) | inactive: 4.42%
COc1cc(SC)ccc1C(=O)NCC1(N(C)C)CCCCC1 | inactive: 1.74%
CCN(CC)CC(C)C(C)OC(=O)C(O)(c1ccccc1)c1ccccc1 (centres undefined) | inactive: 2.64%
CC(C)N1C(=O)CC2(CCN(CCOC(=O)C(O)(c3ccccc3)c3ccccc3)CC2)C1=O | inactive: -0.032%
Cc1ccc(C(=O)NCC2(N3CCCCC3)CCCCC2)cc1 | inactive: 1.15%
CN(C)c1ccc(C(=O)NCC2(N(C)C)CCCCC2)cc1 | inactive: -0.192%
CN(C)C1CCCC1OC(=O)C(O)(c1ccccc1)c1ccccc1 (centres undefined) | inactive: -0.317%
Cc1ccccc1C(=O)NCC1(N2CCCCC2)CCCCC1 | inactive: -0.896%
O=C(NCC1(N2CCCCC2)CCCCC1)c1cc(F)c(F)cc1Cl | inactive: 4.46%
C=CCN1CCN(CCOC(=O)C(O)(c2ccccc2)c2ccccc2)CC1 | inactive: -0.642%
COc1ccc(C(=O)NCC2(N(C)C)CCCCC2)cc1 | inactive: -1.89%
O=C(NCC1(N2CCCCC2)CCCCC1)c1cccc(Br)c1 | inactive: 1.48%
CCN1CCCC(OC(=O)C2(O)c3ccccc3C=Cc3ccccc32)C1 (centres undefined) | inactive: -5.4%
Cc1cc(C(=O)NCC2(N3CCCCC3)CCCCC2)ccc1[N+](=O)[O-] | inactive: -5.45%
CN(C)C1(CNC(=O)c2ccc(Br)cc2)CCCCC1 | inactive: 1.6%
COc1cc(C(=O)NCC2(N(C)C)CCCCC2)c([N+](=O)[O-])cc1OC | inactive: -0.0733%
COc1ccc(Cl)cc1C(=O)NCC1(N(C)C)CCCCC1 | inactive: -0.0887%
COc1cccc(C(=O)NCC2(N3CCCCC3)CCCCC2)c1 | inactive: -3.5%
O=C(OC1CN2CCC1CC2)C(CO)(c1ccccc1)c1ccccc1 (centres undefined) | inactive: 2.69%
COc1ccc(Br)c(C(=O)NCC2(N3CCCCC3)CCCCC2)c1 | inactive: -7.16%
O=C(OCCN1CCCC1)C(O)(c1ccccc1)c1ccccc1 | inactive: -0.492%
CC(C)Oc1ccc(C(=O)NCC2(N(C)C)CCCCC2)cc1 | inactive: 5.01%
CN(C)c1cccc(C(=O)NCC2(N(C)C)CCCCC2)c1 | inactive: 1.61%
